Experimental data as given in patent publication EP4790067A1, “CHIMERIC ADAPTER PROTEIN COMPRISING O6-BENZYLGUANINE BINDING PROTEIN, AND EXTRACELLULAR VESICLE COMPRISING SAME” (priority 2023, dated 2025).

Key:
A549-Luc2 cells [1] = experiment: TUNEL analysis and histopathological analysis (hematoxylin and eosin) of tumor tissue after drug treatment; type: in vivo, BALB/c-nu mice
Experimental: To further evaluate the apoptosis enhanced by sEV(Dox)-Y, terminal deoxynucleotidyl transferase dUTP nick end labeling (TUNEL) analysis was performed, with the results shown in FIG. 33, and histopathological analysis was performed, with the results shown in FIG. 34.
The tissues harvested from mice in Reference Example 14 were fixed in 4 % paraformaldehyde, dehydrated with 30 % sucrose in PBS, and then embedded in OCT compound. The frozen tissues were sectioned at a thickness of 10 µm, and the slides were washed with PBS. Apoptosis was detected using a TUNEL assay kit following the manufacturer's instructions. Nuclei were stained with DAPI for 5 minutes at room temperature. After washing with PBS, the samples were mounted using an antifade mounting medium. For hematoxylin and eosin staining, the slides were stained with hematoxylin for 3 minutes and washed with sterile distilled water. Subsequently, the slides were stained with eosin for 1 minute and washed with water. After dehydration in 95 % and absolute ethanol, the samples were mounted using a mounting medium.

A549 cells [2] = experiment: MTS assay (cell viability / cytotoxicity); type: cell-based, human; conditions: 48 hours after treatment
Experimental: Specifically, doxorubicin (Dox), a chemotherapy drug, was encapsulated in sEV-CAP through electroporation and then conjugated with Y to produce sEV(Dox)-Y. To confirm the internal loading of Dox, the co-localization of EGFP and Dox fluorescence in sEV-CAP was verified through TIRF imaging, with the results shown in FIG. 21. […] In addition, cytotoxicity induced by sEV(Dox)-Y was evaluated 48 hours after treating A549 cells with sEV(Dox)-Y, with the results shown in FIG. 23. A549-Luc2 cells were seeded in a 96-well plate at a density of 1 × 10^4 cells per well. After 24 hours, the cells were cultured with Dox or sEVs loaded with Dox. Cell viability was analyzed using a CellTiter 96® AQueous one solution reagent. After adding 20 µl of the reagent, the microplate was incubated under humidified conditions (37 °C, 5 % CO2) for 1 hour, and then absorbance was measured at 490 nm.

A549 cells [3] = experiment: Dox cellular uptake / drug delivery assay (fluorescence imaging 2 hours after treatment); type: cell-based, human; conditions: versus sEV(Dox) without Y
Experimental: Specifically, doxorubicin (Dox), a chemotherapy drug, was encapsulated in sEV-CAP through electroporation and then conjugated with Y to produce sEV(Dox)-Y. To confirm the internal loading of Dox, the co-localization of EGFP and Dox fluorescence in sEV-CAP was verified through TIRF imaging, with the results shown in FIG. 21. […] In addition, cytotoxicity induced by sEV(Dox)-Y was evaluated 48 hours after treating A549 cells with sEV(Dox)-Y, with the results shown in FIG. 23. A549-Luc2 cells were seeded in a fibronectin-coated dish at a density of 5 × 10^3 cells per well. After 24 hours, the cells were incubated with different treatments according to the experimental focus. To prepare cetuximab-conjugated sEVs, cetuximab was first reacted with a 20-fold molar excess of BG-GLA-NHS for 30 minutes at room temperature. Then, the mixture was subjected to a 7 K MWCO Zeba spin desalting column to remove unconjugated BG-GLA-NHS. […] The green fluorescence of the sEVs and the red fluorescence of the Dox were observed using an epi-fluorescence microscope. […] Thereafter, the cells were washed with 1 ml of PBS to remove extracellular sEVs, and the sEVs internalized into the cells were imaged to quantify delivery efficiency. In addition, fluorescence trajectories of individual sEVs in the cells were obtained. […]

A549-Luc2 cells [4] = experiment: Therapeutic efficacy of Dox-loaded sEVs in tumor-bearing mice (bioluminescence, tumor volume and weight); type: in vivo, BALB/c-nu mice; conditions: Dox 1 mg kg^-1 intravenously six times at three-day intervals
Experimental: A schematic diagram of the drug administration schedule in mice for a test confirming the drug delivery capability of cetuximab (ScFv-Fc format)-conjugated […] is shown in FIG. 28. Tumor-bearing mice were treated with an equivalent dose (1 mg kg^-1) of Dox, administered either in soluble form or encapsulated in non-targeted and targeted […], respectively). First, tumor bioluminescence was measured on the day of euthanasia after the administration of PBS, Dox, sEV(Dox), or sEV(Dox)-Y, and the quantified results are shown in FIG. 29. All animal experiments were performed in accordance with the animal experiment guidelines approved by the Institutional Animal Care and Use Committee (IACUC) of DGIST (approval number 23032701-0000). Male BALB/c-nu mice (6 to 8 weeks old, Orient Bio) were used for the study. […] Tumor volume (V) was calculated as V = length × width^2 / 2. […] The mice were euthanized 4 hours after injection, and major organs (tumor, heart, lungs, liver, spleen, and kidneys) were collected to quantify fluorescence signals using an in vivo imaging system (Perkin Elmer, IVIS Spectrum). […] Before euthanasia, bioluminescence signals were detected using an in vivo imaging system, and tumor tissue was excised, weighed, and subjected to histological analysis.

A549-Luc2 cells [5] = experiment: Tumor targeting / biodistribution of DiR-labeled sEVs in tumor-bearing mice; type: in vivo, BALB/c-nu mice; conditions: intravenous; 4 hours after injection; compared to non-targeted sEVs (wt sEV and sEV-CAP without Y)
Experimental: A schematic diagram of the drug administration schedule in mice for the tumor targeting analysis of cetuximab (ScFv-Fc format)-conjugated […] is shown in FIG. 24. […] All animal experiments were performed in accordance with the animal experiment guidelines approved by the Institutional Animal Care and Use Committee (IACUC) of DGIST (approval number 23032701-0000). Male BALB/c-nu mice (6 to 8 weeks old, Orient Bio) were used for the study. A549-Luc2 cells (1 × 10^7 cells in 100 μl of PBS) were mixed with an equal volume of Matrigel (Corning) and then subcutaneously injected into the mice. Tumor volume (V) was calculated as V = length × width^2 / 2. To analyze the biodistribution of sEVs, the mice were randomly grouped when the tumor volume reached approximately 600 mm^3. PBS or DiR-labeled sEVs (2 × 10^11 particles per mouse) were intravenously injected via the tail vein. The mice were euthanized 4 hours after injection, and major organs (tumor, heart, lungs, liver, spleen, and kidneys) were collected to quantify fluorescence signals using an in vivo imaging system (Perkin Elmer, IVIS Spectrum). […] Before euthanasia, bioluminescence signals were detected using an in vivo imaging system, and tumor tissue was excised, weighed, and subjected to histological analysis.

[6] = system: A549 human lung cancer cells; experiment: sEV cellular uptake assay (time-lapse EGFP fluorescence imaging, MSD analysis of trajectories); type: cell-based
Experimental: First, cellular uptake efficiency of sEV-Y, which targets EGFR as a specific antigen, in A549 human lung cancer cells was investigated using time-lapse fluorescence imaging and EGFP fluorescence intensity, with the results shown in FIGS. 17 and 18. Additionally, representative mean square displacement (MSD) analysis was performed on trajectories showing directional movement 2 hours after treatment. Diffusion types are classified into superdiffusion (active transport), normal diffusion (random movement), and confined diffusion (restricted movement). A549-Luc2 cells were seeded in a fibronectin-coated dish at a density of 5 × 10^3 cells per well. After 24 hours, the cells were incubated with different treatments according to the experimental focus. To prepare cetuximab-conjugated sEVs, cetuximab was first reacted with a 20-fold molar excess of BG-GLA-NHS for 30 minutes at room temperature. Then, the mixture was subjected to a 7 K MWCO Zeba spin desalting column to remove unconjugated BG-GLA-NHS. […] The green fluorescence of the sEVs and the red fluorescence of the Dox were observed using an epi-fluorescence microscope. […] Thereafter, the cells were washed with 1 ml of PBS to remove extracellular sEVs, and the sEVs internalized into the cells were imaged to quantify delivery efficiency. In addition, fluorescence trajectories of individual sEVs in the cells were obtained. […]

Row | Substance | histopathology of tumor tissue (A549-Luc2 cells [1]; hematoxylin and eosin staining after drug treatment) | level of GFP bound to fragmented DNA (TUNEL signal), increase (A549-Luc2 cells [1]; tumor tissue after drug treatment, compared to the control group) [fold] | cytotoxicity (A549 cells [2]) | drug delivery efficiency (A549 cells [3]) | reduction of tumor bioluminescence (A549-Luc2 cells [4]; day of euthanasia, compared to the untreated control group) [%] | tumor growth (tumor volume and weight) (A549-Luc2 cells [4]; measured after euthanasia) | accumulation at the tumor site (DiR fluorescence intensity) (A549-Luc2 cells [5]) | improvement in specific targeting (amount of sEV on the cell surface, EGFP fluorescence intensity) ([6]; compared with the sEV-CAP without Y, over 1 hour after treatment) | internalization and diffusion type (MSD analysis) ([6]; trajectories 2 hours after treatment)
1 | sEV(Dox)-Y | severe destruction of tissue structure and extensive necrosis within the tumor | 4.8 | significantly increased cytotoxicity | improved drug delivery efficiency | 90 | inhibited tumor growth more effectively | – | – | –
2 | sEV-Y | – | – | – | – | – | – | significant accumulation at the tumor site | approximately 3.8 fold | internalized and exhibited superdiffusion
